{"sequences": {"note": "Sequences of proteins named here, by UniProt entry; tags and fusion partners are left off. Residues count along the entry.", "UniProt P28335, 33-458": "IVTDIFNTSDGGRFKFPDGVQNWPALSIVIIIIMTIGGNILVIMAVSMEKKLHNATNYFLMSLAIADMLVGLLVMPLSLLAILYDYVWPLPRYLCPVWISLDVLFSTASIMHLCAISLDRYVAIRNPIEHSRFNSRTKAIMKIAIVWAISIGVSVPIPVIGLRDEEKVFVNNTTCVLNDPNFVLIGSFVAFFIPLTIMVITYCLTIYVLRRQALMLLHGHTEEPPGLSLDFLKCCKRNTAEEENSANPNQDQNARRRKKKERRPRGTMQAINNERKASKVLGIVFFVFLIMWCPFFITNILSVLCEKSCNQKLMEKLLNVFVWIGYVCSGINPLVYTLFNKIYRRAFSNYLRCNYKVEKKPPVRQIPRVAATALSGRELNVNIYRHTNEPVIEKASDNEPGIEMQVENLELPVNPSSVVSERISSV"}, "source": "patent US7687620B2", "about": "“[1,4]diazepino[6,7,1-IJ]quinoline derivatives as antipsychotic and antiobesity agents” (Wyeth LLC, priority 2002, dated 2010)", "key": {"[1]": {"biological_target": "T1, human 5-hydroxytryptamine2C (h5HT2C) receptor (Homo sapiens, UniProt P28335)", "T1 construct": "expressed in transfected cells; host or cells: CHO (Chinese Hamster Ovary) cells; membrane preparation", "experiment": "5HT2C receptor binding ([125I]DOI displacement, CHO cell membranes)", "settings": "[125I]DOI binding, CHO membranes expressing h5HT2C; 95% confidence interval in brackets; read-out: Ki (95% confidence interval), reference compounds"}, "human 5-HT2C receptor": {"biological_target": "human 5-HT2C receptor (Homo sapiens, UniProt P28335)", "experiment": "Calcium mobilization in response to 5-HT2C receptor agonists (FLIPR, CHO cells)", "assay_type": "cell-based", "settings": "CHO cells stably expressing human 5-HT2C, read-out: EC50, reference compounds"}}}
{"molecule": "Clc1cccc(N2CCNCC2)c1", "note": "[mCPP, meta-chlorophenylpiperazine, reference compound]", "values": [{"measurement": "Ki", "setting": "[1]", "value": 6.5, "unit": "nM"}, {"measurement": "EC50", "setting": "human 5-HT2C receptor", "value": 5.4, "unit": "nM"}]}
